Reference: PMC5503534, “Stable aneuploid tumors cells are more sensitive to TTK inhibition than chromosomally unstable cell lines” (Oncotarget, 2017)

What was measured:
[1] = test system: 66 cancer cell lines (44 cell lines); conditions: read-out: average IC50; 5 days; geometric average in 66 cancer cell lines; cited from earlier work
[2] = test system: A-172 glioblastoma cell line; test: Cell proliferation assay (ATPlite), A-172; conditions: 5 day proliferation assay
[3] = test system: DoTc2 4510 cervix carcinoma cell line; test: Cell proliferation assay (ATPlite), DoTc2 4510; conditions: 5 day proliferation assay
[4] = test system: OVCAR-3 ovary adenocarcinoma cell line; test: Cell proliferation assay (ATPlite), OVCAR-3; conditions: 5 day proliferation assay
[5] = test system: MG-63 osteosarcoma cell line; test: Cell proliferation assay (ATPlite), MG-63; conditions: 5 day proliferation assay
[6] = test system: HCT 116 colon carcinoma cell line; test: Cell proliferation assay (ATPlite), HCT 116
[7] = test system: LoVo colorectal adenocarcinoma cell line; test: Cell proliferation assay (ATPlite), LoVo; conditions: 5 day proliferation assay
[8] = test system: post-tetraploid HPT2 cells; test: Cell proliferation assay, post-tetraploid HPT2; conditions: HPT2, five days
[9] = test system: post-tetraploid HPT1 cells; test: Cell proliferation assay, post-tetraploid HPT1; conditions: HPT1, five days
[10] = test system: post-tetraploid HPT4 cells; test: Cell proliferation assay, post-tetraploid HPT4; conditions: HPT4, five days
[11] = geometric average of three experiments

IC50 [2]: 1630 nM
IC50 [3]: 2560 nM
IC50 [4]: 5490 nM
IC50 [5]: 3760 nM
IC50 ([6]; 5 day proliferation assay, HCT 116 (Suppl. Table 1)): 1390 nM
IC50 ([6]; HCT 116 near-diploid, five days, geometric average of three experiments (Suppl. Table 2A)): 1580 nM
IC50 [7]: 1430 nM
SMILES: CC(C)CNc1nccn2c(-c3ccc(C(=O)NC4CC4)cc3)cnc12
IC50 [1]: 1820 nM
Eff. (%) ([6]; HCT 116, five days, maximum inhibitory effect, average of three experiments): 87%
Efficacy (%) ([8]; average of three experiments): 49%
IC50 [8, 11]: 1800 nM
Efficacy (%) ([9]; average of three experiments): 66%
IC50 [9, 11]: 1890 nM
Efficacy (%) ([10]; average of three experiments): 52%
IC50 [10, 11]: 1580 nM
